The text below walks through data of PubChem BioAssay AID1053188 (Broad Institute, 2014).

Only a part is listed here, and it is no random draw. Calls of active or inactive are those of the source.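 The calls were made as follows: active = mean inhibition of at least 50% with a set share of replicates also reaching that level; inconclusive = no clear call, values can overlap the other calls; inactive = the rest.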

This assay in a line: CD40 pathway blockade in BL2 B cells – cell-based, luciferase reporter, single point, primary screen (AID 1053188).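 Also: 0% = neutral control wells and 100% = IKK inhibitor VII at 50 µM.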 Conditions: BL2 NF-kB luciferase reporter, CD40L-induced, 4 h; at 10 µM; hits give high values.
`CN(C)C(=O)Oc1noc2ccccc12`: the inhibition was inactive: 13.7%.
For `CC(NC(=O)COC(=O)C(O)(c1ccccc1)c1ccccc1)c1ccccc1` (centres undefined) the value was inactive: 1.03%; for `CCNC(=S)/N=C(\N)N[N+](=O)[O-]`, inactive: 1.88%.
In the case of `O=P1(N(CCCl)CCCl)OCCC2CCCCN21` (centres undefined), the inhibition is inactive: 2.77%.
On to `CC(=O)Nc1ccc(Oc2c([N+](=O)[O-])cc([N+](=O)[O-])cc2[N+](=O)[O-])cc1`, for which the inhibition was inactive: -1.59%.
Regarding `CC(C)(C)C(=O)NC(Sc1ccccc1)C(Cl)(Cl)Cl` (centres undefined), the inhibition is inactive: 5.21%.
On to `c1nnnn1CCn1cnnn1`, for which the inhibition was inactive: 17.4%.
As to `C/C(N)=N\P(=O)(OCc1ccccc1)OCc1ccccc1`, the inhibition is inactive: 1.22%.
As for `COc1ccc(N)c([N+](=O)[O-])c1[N+](=O)[O-]`, the inhibition is inactive: 2.5%.
On to `c1cc(-c2nn[nH]n2)ccc1-c1nn[nH]n1`, for which the inhibition was inactive: 1.65%.
Consider `O=[N+]([O-])c1cccc2n[nH]nc12`, for which the inhibition was inactive: 4.49%.
Under `O=[N+]([O-])c1cc([N+](=O)[O-])c(CCNc2ccccc2)c([N+](=O)[O-])c1` stands inactive: -4.93%; under `CN1CCCC(OC(=O)C(c2ccccc2)c2ccccc2)C1` (centres undefined), inactive: 20.6%.
For `CCCC1OP(N)(=O)OCC1CC` (centres undefined), the inhibition is inactive: 4.3%.
Consider `COc1cc(C(=O)NCC2(N3CCOCC3)CCCCC2)ccc1OCC(C)C`, for which the inhibition was inactive: 3.69%.
For `O=[N+]([O-])c1cc(Oc2ccc([N+](=O)[O-])cc2C(F)(F)F)cc([N+](=O)[O-])c1`, the inhibition is inactive: 14%.
Regarding `O=C(OC1CN2CCC1CC2)c1cccc([N+](=O)[O-])c1` (centres undefined), the inhibition was inactive: 4.74%.
For the compound `O=C(COc1ccccc1)OC1CN2CCC1CC2` (centres undefined), the inhibition was inactive: 3.11%.
On to `O=C(O)C(=O)c1ccc(N(CCCl)CCCl)cc1`, for which the inhibition is inactive: -12.1%.
Regarding `CC1CCNP(=O)(N(CCCl)CCCl)O1` (centres undefined), the inhibition was inactive: -0.686%.
As for `O=C(O)C(O)c1ccc(N(CCCl)CCCl)cc1` (centres undefined), the inhibition is inactive: 4.48%.
On to `COP(=O)(OC)N1CC1c1ccccc1` (centres undefined), for which the inhibition was inactive: 7.11%.
For `COc1ccccc1CNC(=O)COC(=O)C(O)(c1ccccc1)c1ccccc1` the value was inactive: 4.48%; for `CN(C(=O)Cc1ccc(Cl)c(Cl)c1)[C@@H]1CCCC[C@H]1N1CCCC1`, inactive: 4.9%.
For `CC(C)/C=N\N=C(\N)N[N+](=O)[O-]`, the inhibition is inactive: 7.83%.
Take `CCC1=CC2Cc3nc4ccc(Cl)cc4c(N)c3C(C1)C2` (centres undefined): the inhibition is active: 61.4%.
As to `CN(C(=O)Cc1ccc(Cl)c(Cl)c1)[C@H]1CC[C@@]2(CCCO2)C[C@@H]1N1CCCC1`, the inhibition was inactive: 9.1%.
Take `CN(C(=O)Cc1ccccc1)[C@@H]1CC[C@]2(CCCO2)C[C@H]1N1CCCC1`: the inhibition is inactive: 0.894%.
With `N#CCCN(C(=O)COC(=O)C(O)(c1ccccc1)c1ccccc1)c1ccc(F)cc1`, the inhibition was inactive: 12%.
